## Apparent affinities of Ab-14 variants for a coronavirus HR2 peptide

The measurements come from Engelhart et al. 2022 (doi:10.1038/s41597-022-01779-4) through the FLAb antibody collection.

Antigen: PDVDLGDISGINAS, a 14-residue peptide of the SARS-CoV-2 spike HR2 region.

Parent scFv Ab-14: VH joined to VL by three GGGGS repeats. Changes lie in the heavy chain CDRs alone.
VH: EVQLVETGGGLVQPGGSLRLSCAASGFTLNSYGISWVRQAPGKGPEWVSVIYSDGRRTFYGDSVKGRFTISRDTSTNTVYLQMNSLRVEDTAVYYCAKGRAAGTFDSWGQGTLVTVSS
VL: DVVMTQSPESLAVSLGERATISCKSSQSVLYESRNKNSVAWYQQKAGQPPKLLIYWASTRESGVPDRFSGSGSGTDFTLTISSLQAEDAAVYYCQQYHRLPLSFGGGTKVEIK

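The parent was found by panning a naive human phage display library on the peptide. In library AAYL49, one, two or three CDR residues were substituted; doubles and triples were drawn at random. The scFvs were displayed on barcoded MATa yeast, the peptide on MATalpha yeast. After mating in shaken culture at 30 °C for 16 h, diploids were selected and their barcode pairs sequenced. A regression on co-assayed BCL2-family reference pairs converts the normalised counts of each replicate to an apparent Kd. Mating was done three times.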

The parent's heavy chain CDRs are GFTLNSYGIS, VIYSDGRRTFYGDSVK, GRAAGTFDS; each variant's own CDRs replace them letter for letter.
Kd is apparent (estimated from mating counts) and averaged on the log scale over replicates with a signal. Smaller is tighter.
"not detected" means that the variant was in the library but no mating with the target was seen in any replicate; the authors take this as a sign of poor binding, and no number exists.
For reference, the parent read 4.4 nM as the reference entry and 13 µM (one replicate of three) as a member of this library.
As a blank, each scFv also met three strains without target: over library AAYL49, 15% of these pairings were detected, typically at 11 µM and seldom below 680 nM. For each scFv, signals with the empty controls are counted beside the result.

{"CDR-H1": "GFTHYSYGIS", "CDR-H2": "VIYSDGRRTFYGDSVV", "CDR-H3": "GRAAGTFDS", "apparent Kd": "220 µM", "detected": "1/3", "empty controls": "2/9"}
{"CDR-H1": "GFTLNSYGIS", "CDR-H2": "VIFDDGRRTFYMDSVK", "CDR-H3": "GRAAGTFDS", "apparent Kd": "230 µM", "detected": "2/3", "empty controls": "1/9"}
{"CDR-H1": "GFALNSYGFS", "CDR-H2": "VIYPDGRRTFYGDSVK", "CDR-H3": "GRAAGTFDS", "apparent Kd": "not detected", "detected": "0/3", "empty controls": "2/9"}
{"CDR-H1": "GFTLNSYGIQ", "CDR-H2": "VIYSDARRTFYGDSVK", "CDR-H3": "GRAAGTFDS", "apparent Kd": "not detected", "detected": "0/3", "empty controls": "1/9"}
{"CDR-H1": "GFTLNSYGMS", "CDR-H2": "VIYSDGRRTFYGDSVK", "CDR-H3": "GRCHGTFDS", "apparent Kd": "not detected", "detected": "0/3", "empty controls": "0/9"}
{"CDR-H1": "AFTLNSYGIS", "CDR-H2": "VIYSDGRRTFYGDSVK", "CDR-H3": "GRAPGTFTS", "apparent Kd": "600 nM", "detected": "2/3", "empty controls": "2/9"}
{"CDR-H1": "GFTLNSYGIS", "CDR-H2": "VLYSDGRRTFYGDSVK", "CDR-H3": "GRCANTFDS", "apparent Kd": "61 nM", "detected": "3/3", "empty controls": "0/9"}
{"CDR-H1": "GFTLNSYGIS", "CDR-H2": "VIYSDGRRTFYGTMVK", "CDR-H3": "GIAAGTFDS", "apparent Kd": "not detected", "detected": "0/3", "empty controls": "2/9"}
{"CDR-H1": "GFHLNSYGIS", "CDR-H2": "VIYSDGRRTFYGKSWK", "CDR-H3": "GRAAGTFDS", "apparent Kd": "46 µM", "detected": "2/3", "empty controls": "6/9"}
{"CDR-H1": "GFTLCSYGIS", "CDR-H2": "VIYSDGRRTVYGDSVK", "CDR-H3": "GRAAGTFDS", "apparent Kd": "110 nM", "detected": "1/3", "empty controls": "0/9"}
{"CDR-H1": "GQTLNSLGIS", "CDR-H2": "VIYSDGRRTFYGDEVK", "CDR-H3": "GRAAGTFDS", "apparent Kd": "43 µM", "detected": "1/3", "empty controls": "1/9"}
{"CDR-H1": "GFTLNCYGIS", "CDR-H2": "VDYSDGRRTFYGDSVK", "CDR-H3": "GRAAYTFDS", "apparent Kd": "not detected", "detected": "0/3", "empty controls": "1/9"}
{"CDR-H1": "GQTLHSYGIS", "CDR-H2": "VIYSDGRRTFYGDSVK", "CDR-H3": "GRAAYTFDS", "apparent Kd": "not detected", "detected": "0/3", "empty controls": "0/9"}
{"CDR-H1": "GFTLNSYGIP", "CDR-H2": "VIYSDGRRTRYGDSVW", "CDR-H3": "GRAAGTFDS", "apparent Kd": "not detected", "detected": "0/3", "empty controls": "0/9"}
{"CDR-H1": "GFTLNSYGIS", "CDR-H2": "VIESDGARTFYGDSVK", "CDR-H3": "GRAAGTFDF", "apparent Kd": "12 µM", "detected": "1/3", "empty controls": "0/9"}
{"CDR-H1": "GFTLNSYGIS", "CDR-H2": "EIYSDTRRTFYGDSVK", "CDR-H3": "GRAAGTFDS", "apparent Kd": "not detected", "detected": "0/3", "empty controls": "0/9"}
{"CDR-H1": "GFTLPSYGIS", "CDR-H2": "VIYSDGRRTFYGDSGK", "CDR-H3": "GRAAGTFDR", "apparent Kd": "not detected", "detected": "0/3", "empty controls": "0/9"}
{"CDR-H1": "GFTLNSYGIS", "CDR-H2": "VQYSDGRRTFYCDSVK", "CDR-H3": "GRALGTFDS", "apparent Kd": "220 µM", "detected": "1/3", "empty controls": "2/9"}
{"CDR-H1": "GFTLKSYGIS", "CDR-H2": "VIYSDGRRTFYGDSTK", "CDR-H3": "GRAAGTGDS", "apparent Kd": "not detected", "detected": "0/3", "empty controls": "0/9"}
{"CDR-H1": "GFTLNSYGIS", "CDR-H2": "VILSDGPRTFYGDSVK", "CDR-H3": "GRAMGTFDS", "apparent Kd": "32 µM", "detected": "2/3", "empty controls": "6/9"}

Extract of 2 entries:

CDR-H1,CDR-H2,CDR-H3,apparent Kd,detected,empty controls
GFTLNSYGIS,VQYSDGRRTFYCDSVK,GRALGTFDS,220 µM,1/3,2/9
GFTLPSYGIS,VIYSDGRRTFYGDSGK,GRAAGTFDR,not detected,0/3,0/9